Results as given in ChEMBL document CHEMBL1221216, “Chemical probes for histone-modifying enzymes” (Nat Chem Biol, 2008).

Biological target: T1, Histone-lysine N-methyltransferase EHMT1 (Homo sapiens, UniProt Q9H9B1)
T1 sequence (Q9H9B1 whole entry): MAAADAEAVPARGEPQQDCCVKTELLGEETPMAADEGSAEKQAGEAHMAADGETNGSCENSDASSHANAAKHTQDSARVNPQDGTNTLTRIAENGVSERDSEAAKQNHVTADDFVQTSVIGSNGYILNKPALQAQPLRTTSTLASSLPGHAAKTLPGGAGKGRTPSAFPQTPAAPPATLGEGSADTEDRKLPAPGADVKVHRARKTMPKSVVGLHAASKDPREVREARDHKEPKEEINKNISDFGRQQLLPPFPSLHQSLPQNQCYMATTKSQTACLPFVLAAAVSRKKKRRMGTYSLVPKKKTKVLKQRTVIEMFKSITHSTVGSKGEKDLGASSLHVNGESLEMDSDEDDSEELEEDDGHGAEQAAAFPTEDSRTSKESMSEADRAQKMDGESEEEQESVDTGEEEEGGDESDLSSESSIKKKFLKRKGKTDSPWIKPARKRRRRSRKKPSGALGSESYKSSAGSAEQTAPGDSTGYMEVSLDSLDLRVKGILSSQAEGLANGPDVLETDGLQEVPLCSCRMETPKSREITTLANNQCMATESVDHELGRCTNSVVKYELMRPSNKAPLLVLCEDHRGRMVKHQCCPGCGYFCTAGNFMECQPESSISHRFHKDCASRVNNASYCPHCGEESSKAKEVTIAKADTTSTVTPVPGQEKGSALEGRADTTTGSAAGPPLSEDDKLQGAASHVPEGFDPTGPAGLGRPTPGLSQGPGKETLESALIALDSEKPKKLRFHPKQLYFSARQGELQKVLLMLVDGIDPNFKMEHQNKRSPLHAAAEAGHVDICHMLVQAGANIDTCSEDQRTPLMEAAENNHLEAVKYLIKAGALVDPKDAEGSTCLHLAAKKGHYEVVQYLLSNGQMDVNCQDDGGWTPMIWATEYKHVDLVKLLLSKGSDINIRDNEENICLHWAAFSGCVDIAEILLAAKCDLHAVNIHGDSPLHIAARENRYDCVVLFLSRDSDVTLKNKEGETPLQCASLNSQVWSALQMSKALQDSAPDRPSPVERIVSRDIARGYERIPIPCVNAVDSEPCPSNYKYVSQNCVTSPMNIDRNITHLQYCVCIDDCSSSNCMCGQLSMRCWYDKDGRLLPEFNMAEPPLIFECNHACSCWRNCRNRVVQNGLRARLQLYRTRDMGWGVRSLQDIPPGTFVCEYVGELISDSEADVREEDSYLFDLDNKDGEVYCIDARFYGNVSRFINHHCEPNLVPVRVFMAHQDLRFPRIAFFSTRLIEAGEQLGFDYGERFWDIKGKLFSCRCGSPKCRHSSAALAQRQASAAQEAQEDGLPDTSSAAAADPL
Assay: Inhibition of Histone H3 lysine 9 of GLP methyltransferase

Work on `COc1cc2nc(N3CCCN(C)CC3)nc(NC3CCN(Cc4ccccc4)CC3)c2cc1OC` yielded an IC50 of 38 µM.
